For orientation: inhibition means the drop in the measured response relative to a control, in per cent.

Sequences of proteins named here, by UniProt entry; tags and fusion partners are left off.
UniProt P11940, whole entry: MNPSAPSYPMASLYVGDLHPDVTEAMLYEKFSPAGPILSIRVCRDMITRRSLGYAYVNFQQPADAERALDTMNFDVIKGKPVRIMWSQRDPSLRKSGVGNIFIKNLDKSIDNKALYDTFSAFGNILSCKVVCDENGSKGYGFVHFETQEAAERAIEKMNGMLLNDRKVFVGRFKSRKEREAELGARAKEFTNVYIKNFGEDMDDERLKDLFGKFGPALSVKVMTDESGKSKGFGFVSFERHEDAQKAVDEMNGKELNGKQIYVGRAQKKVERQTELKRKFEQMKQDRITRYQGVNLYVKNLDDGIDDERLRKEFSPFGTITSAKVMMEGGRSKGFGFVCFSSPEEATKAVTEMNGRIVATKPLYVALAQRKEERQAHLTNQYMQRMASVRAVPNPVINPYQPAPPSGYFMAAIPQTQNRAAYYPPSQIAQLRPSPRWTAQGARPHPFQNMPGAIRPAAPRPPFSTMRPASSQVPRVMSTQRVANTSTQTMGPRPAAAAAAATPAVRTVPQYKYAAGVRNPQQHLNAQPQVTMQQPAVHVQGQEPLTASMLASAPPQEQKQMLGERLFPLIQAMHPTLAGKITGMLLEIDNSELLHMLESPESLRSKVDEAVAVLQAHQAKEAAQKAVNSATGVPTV

This is a selection; strong and weak results do not stand in their true shares. Some salts or complexes appear as unconnected parts, following the source record. Activity calls are given as the source filed them. Cut-off read from the data, not from the text of the source: active = inhibition above about 35% (passing the limit was not always enough); inactive = the rest.

The assay deals with Polyadenylate-binding protein 1 (Homo sapiens) (UniProt P11940). Put plainly: PAM2 peptide displacement from PABP1 MLLE – biochemical, fluorescence polarization, FITC-PAM2, GST-MLLE, primary screen (AID 588489).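 Note: plate controls were DMSO wells with GST-MLLE for no effect and wells lacking GST-MLLE protein for full effect.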 The following applies: at 20 µM, hits give high values. For orientation: In fluorescence polarisation assays a small probe gives low polarisation when free and higher when bound to something large.
Turning to `Cc1cc(C)cc(OP(C)(N)=O)c1` (stereo not given), the inhibition is inactive: 14.3%. Next, `COc1ccc(OP(C)(=O)Nc2cccc(F)c2)cc1` (stereo not given): inactive: -8.69%; `COc1ccccc1OP(C)(=O)Nc1cc(Cl)ccc1C` (stereo not given): inactive: -8.56%. To `Cc1ccc(NP(C)(=O)Oc2ccccc2)c(C)c1` (stereo not given) belongs inactive: 1.81%. `COc1ccccc1OP(C)(=O)Nc1ccc(C)cc1` (stereo not given): the inhibition was inactive: 6.27%. Take `CCOC(=O)c1ccc(NP(C)(=O)Oc2ccccc2)cc1` (stereo not given): the inhibition is inactive: 7.01%. To `O=[N+]([O-])c1ccc2c(c1)C=Nc1ccccc1O2` belongs inactive: 2.13%; to `Cc1cccc(C)c1OP(C)(N)=O` (stereo not given), inactive: 1.99%. Next, `CC(C)(C)c1ccc(OP(C)(=O)Nc2ccc(SC(F)(F)F)cc2)cc1` (stereo not given): inactive: -16.5%; `O=[N+]([O-])c1cc([N+](=O)[O-])c(Nc2cccnc2)c([N+](=O)[O-])c1`: inactive: 3.72%; `CCN(CC)CCCOC(=O)C(O)(c1ccccc1)c1ccccc1`: inactive: 4.32%.

`CP(=O)(Nc1ccccn1)Oc1ccc(Cl)cc1` (stereo not given): the inhibition was inactive: 7.81%. Next, `CCOC(=O)c1ccc(NP(C)(=O)Oc2ccc(OC)cc2)cc1` (stereo not given): inactive: 11.7%; `O=[N+]([O-])c1cc([N+](=O)[O-])c(O)c([N+](=O)[O-])c1.c1ccc(Oc2ccncc2)cc1`: inactive: -7.94%; `CCOP(C)(=S)SCC(=O)NC(C)C(=O)O` (stereo not given): inactive: -6.52%. Next, `Cc1cc(C)cc(OP(C)(=O)Nc2ccc(SC(F)(F)F)cc2)c1` (stereo not given): inactive: 10.7%; `CCc1ccc(OP(C)(=O)N2CCN(c3ccc([N+](=O)[O-])cc3)CC2)cc1` (stereo not given): inactive: 1.35%.

Regarding `CP(=O)(NC(=O)Nc1ccccc1)Oc1ccccc1` (stereo not given), the inhibition was inactive: 2.39%. To `CP(=O)(Oc1ccccc1)OC(c1ccccc1)C(F)(F)F` (stereo not given) belongs inactive: -1.07%; to `Cc1ccc(Nc2c([N+](=O)[O-])cc([N+](=O)[O-])cc2[N+](=O)[O-])cc1`, inactive: -9.88%. Take `Cc1cccc(C)c1OP(C)(=O)Nc1ccc(SC(F)(F)F)cc1` (stereo not given): the inhibition was inactive: 0.89%. As to `CP(=O)(Nc1ccc(SC(F)(F)F)cc1)Oc1ccc(Cl)cc1` (stereo not given), the inhibition was inactive: 3.65%. Next, `CP(=O)(Nc1ccccc1Br)Oc1ccccc1` (stereo not given): inactive: 2.9%; `COc1ccccc1OP(C)(=O)Nc1ccccc1` (stereo not given): inactive: 18.4%.

Turning to `CP(=S)(Nn1cnnc1)Oc1ccccc1` (stereo not given), the inhibition was inactive: -0.06%. Next, `CP(=O)(Nc1ccc(SC(F)(F)F)cc1)Oc1ccccc1` (stereo not given): inactive: -7.22%; `CCCOc1ccc(NP(C)(=O)Oc2ccc(Cl)cc2)cc1` (stereo not given): inactive: 0.24%; `COc1ccccc1OP(C)(=O)Nc1c(C)cccc1C` (stereo not given): inactive: -10.9%. To `CN1CCCCC1COC(=O)C1(O)c2ccccc2CCc2ccccc21` (stereo not given) belongs inactive: -0.33%; to `CCOC(=O)C(CC)C1=NC(C)(C)Cc2ccccc21.O=[N+]([O-])c1cc([N+](=O)[O-])c(O)c([N+](=O)[O-])c1` (stereo not given), inactive: -0.28%; to `O=[N+]([O-])c1cc([N+](=O)[O-])c(Nc2nnnn2CCO)c([N+](=O)[O-])c1`, inactive: -5.16%. For `CC1=C2N=C(C=C3N=C(C(C)=C4[N-][C@@](C)([C@@H]5N=C1[C@](C)(CCC(=O)NC[C@@H](C)OP(=O)([O-])O[C@H]1[C@@H](O)[C@@H](n6cnc7cc(C)c(C)cc76)O[C@@H]1CO)[C@H]5CC(N)=O)[C@@](C)(CC(N)=O)[C@@H]4CCC(N)=O)[C@@](C)(CC(N)=O)[C@@H]3CCC(N)=O)C(C)(C)[C@@H]2CCC(N)=O.[C-]#N.[Co+3]`, the inhibition was inactive: -2.68%. Regarding `Cc1nc2ccc3ccccc3c2s1.O=[N+]([O-])c1cc([N+](=O)[O-])c(O)c([N+](=O)[O-])c1`, the inhibition was inactive: -12.3%.

With `O=[N+]([O-])c1cc([N+](=O)[O-])c(-c2cnn(-c3ccccc3)c2)c([N+](=O)[O-])c1`, the inhibition was inactive: -4.83%.

Turning to `CN(Cc1cccnc1)C(=O)COc1ccc(Cl)c(Cl)c1.O=[N+]([O-])c1cc([N+](=O)[O-])c(O)c([N+](=O)[O-])c1`, the inhibition was inactive: 4.25%. Turning to `O=[N+]([O-])c1cc([N+](=O)[O-])c(-n2nnc3ccccc32)c([N+](=O)[O-])c1`, the inhibition was inactive: -11.6%.

With `Cc1ccc(C)c(NP(C)(=O)Oc2ccccc2)c1` (stereo not given), the inhibition is inactive: 4.29%. Next, `CP(=O)(Nc1cccc(Br)c1)Oc1ccccc1` (stereo not given): inactive: -2.4%. Regarding `Cc1cc(C)cc(OP(C)(=O)Nc2ccccn2)c1` (stereo not given), the inhibition was inactive: 5.6%. To `CCOC(=O)c1ccc(NP(C)(=O)Oc2cc(C)cc(C)c2)cc1` (stereo not given) belongs inactive: 6.96%. As for `Cc1cc(C)cc(OP(C)(=O)Nc2ccc(C)cc2C)c1` (stereo not given), the inhibition is inactive: -4.05%. Next, `COc1ccccc1OP(C)(=O)Nc1cccc(Br)c1` (stereo not given): inactive: 3.14%; `CC1=NCCc2c1[nH]c1ccccc21.O=[N+]([O-])c1cc([N+](=O)[O-])c(O)c([N+](=O)[O-])c1`: inactive: 4.43%.

As for `O=C(O)c1cccc(Nc2c([N+](=O)[O-])cc([N+](=O)[O-])cc2[N+](=O)[O-])c1`, the inhibition was inactive: 0.22%. Next, `CP(=O)(Nc1ccccc1)Oc1ccc(F)cc1` (stereo not given): inactive: -8.92%; `CCCCCOc1ccc(NP(C)(=O)Oc2ccc(Cl)cc2Cl)cc1` (stereo not given): inactive: -5.77%; `O=[N+]([O-])c1cc([N+](=O)[O-])c(OC2CCCCC2O)c([N+](=O)[O-])c1` (stereo not given): inactive: 1.07%. Take `Cc1c([N+](=O)[O-])cc([N+](=O)[O-])c(Br)c1[N+](=O)[O-]`: the inhibition is inactive: -16.9%.

For `CCN(CC)CCCOC(=O)C(O)(c1ccccc1)C1CCCCC1` (stereo not given), the inhibition was inactive: -0.71%. To `CCOC(=O)c1ccc(NP(C)(=O)Oc2ccc(F)cc2)cc1` (stereo not given) belongs inactive: 4.46%; to `COc1ccc(OP(C)(=O)Nc2ccc(SC(F)(F)F)cc2)cc1` (stereo not given), inactive: -4.11%; to `COc1ccc2c(c1O)-c1c(O)c(OC)cc3c1[C@H](C2)[N+](C)(C)CC3.O=[N+]([O-])c1cc([N+](=O)[O-])c([O-])c([N+](=O)[O-])c1[O-]`, inactive: 13.1%. Take `O=C(OC1CN2CCC1CC2)c1ccc([N+](=O)[O-])cc1` (stereo not given): the inhibition is inactive: 5.48%. Next, `O=C(OCCN1CCN(CCOCc2ccccc2)CC1)C(O)(c1ccccc1)c1ccccc1`: inactive: -7.46%; `CP(=O)(Nc1ccccc1F)Oc1ccccc1` (stereo not given): inactive: -10.8%.

As to `CC(C)c1ccc(OP(C)(=O)Nc2ccc(SC(F)(F)F)cc2)cc1` (stereo not given), the inhibition was inactive: -4.87%. Regarding `O=[N+]([O-])c1cc([N+](=O)[O-])c(Nc2ccc(Cl)cc2)c([N+](=O)[O-])c1`, the inhibition is inactive: -10.2%.

Regarding `Cc1ccccc1NP(C)(=O)Nc1ccccc1C`, the inhibition is inactive: 3.54%. Turning to `CP(=O)(Nc1ccc2c(c1)OCCO2)Oc1ccccc1` (stereo not given), the inhibition was inactive: -14.1%. For the compound `CCOP(C)(=S)SCC(=O)NC(C)(CC)C(=O)O` (stereo not given), the inhibition is inactive: 12.3%. To `CP(=O)(Nc1ccc(SC(F)(F)F)cc1)Oc1ccc(F)cc1` (stereo not given) belongs inactive: -1.94%; to `Cc1c(C(c2ccc3c(c2)OCO3)c2c(C)n(C)n(-c3ccccc3)c2=O)c(=O)n(-c2ccccc2)n1C.O=[N+]([O-])c1cc([N+](=O)[O-])c(O)c([N+](=O)[O-])c1`, inactive: 4.11%. To `O=[N+]([O-])c1ccc(OP2(=O)COCCO2)cc1` (stereo not given) belongs inactive: -3.9%; to `Cc1cc(-c2cccc3ccccc23)c(C)cn1.O=[N+]([O-])c1cc([N+](=O)[O-])c(O)c([N+](=O)[O-])c1`, inactive: 13.2%; to `O=[N+]([O-])c1cc([N+](=O)[O-])c(NCC2CCS(=O)(=O)C2)c([N+](=O)[O-])c1` (stereo not given), inactive: -8.09%.

In the case of `CN(C)CCOC(=O)C(O)(c1ccccc1)C1CCCCC1` (stereo not given), the inhibition was inactive: 1.13%. To `COc1ccc(NP(C)(=O)Oc2ccccc2OC)cc1` (stereo not given) belongs inactive: 2.85%; to `COc1ccc(OP(C)(=O)Nc2cccc(Br)c2)cc1` (stereo not given), inactive: 1.8%; to `CCOC(=O)c1ccc(NP(C)(=O)Oc2ccc(Cl)cc2)cc1` (stereo not given), inactive: 4.11%. For the compound `CP(=O)(OC12CC3CC(CC(C3)C1)C2)OC12CC3CC(CC(C3)C1)C2`, the inhibition was inactive: -18.6%. Next, `CN(C)C(=O)c1c([N+](=O)[O-])cc([N+](=O)[O-])cc1[N+](=O)[O-]`: inactive: 9.36%; `CC(C)(C)c1ccc(OP(C)(=O)O)cc1`: inactive: -5.47%; `COc1ccccc1OP(C)(=O)Nc1ccccc1Br` (stereo not given): inactive: -0.58%.

On to `CP(=O)(Nc1ccc(Cl)cc1)Oc1ccc(F)cc1` (stereo not given), for which the inhibition was inactive: 2%. Next, `O=C(OCCCN1CCCC1)C(O)(c1ccccc1)C1CCCCC1` (stereo not given): inactive: -13.5%. Next, `COc1ccccc1OP(C)(=O)Nc1c(C)n(C)n(-c2ccccc2)c1=O` (stereo not given): inactive: -2.33%; `CCc1ccc(OP(C)(=O)Nc2cccnc2)cc1` (stereo not given): inactive: -2.01%; `CP(=O)(Oc1ccccc1)N1CCOC1=O` (stereo not given): inactive: -0.98%. Next, `COc1ccc(OP(C)(=O)Nc2ccc(Br)cc2)cc1` (stereo not given): inactive: -3.02%.

Regarding `CCN(CC)CC(O)COC(=O)C(O)(c1ccccc1)C1CCCCC1` (stereo not given), the inhibition was inactive: 2.72%. Take `COc1ccccc1OP(C)(=O)Nc1ccc(C)cc1C` (stereo not given): the inhibition was inactive: 12.5%. `CP(=O)(Nc1ccccn1)Oc1ccccc1` (stereo not given): the inhibition was inactive: 2.61%. `CCc1ccc(OP(C)(=O)O)cc1`: the inhibition was inactive: -9.1%. To `O=[N+]([O-])c1cc([N+](=O)[O-])c(Nc2ccccn2)c([N+](=O)[O-])c1` belongs inactive: -2.23%; to `Cc1c(NP(C)(=O)Oc2ccc(C(C)C)cc2)c(=O)n(-c2ccccc2)n1C` (stereo not given), inactive: -1.2%.

Consider `COc1ccc(OP(C)(=O)Nc2ccccn2)cc1` (stereo not given), for which the inhibition was inactive: 6.37%.

Turning to `CN(C)CCOC(=O)C(O)(c1ccccc1)C1CCCC1` (stereo not given), the inhibition is inactive: -0.7%. `COc1ccccc1OP(C)(=O)Nc1ccc(Br)cc1` (stereo not given): the inhibition is inactive: -1.82%. Consider `CP(=O)(OCCOc1ccccc1)OCCOc1ccccc1`, for which the inhibition is inactive: 6.85%. For `CCCCCCCCCCCCCCCC1C[N+](C)(C)CCOP(C)(=O)O1` (stereo not given), the inhibition is inactive: 10.7%. For `CP(=O)(Nc1ccc(Cl)cc1Cl)Oc1ccccc1` (stereo not given), the inhibition is inactive: -11.4%.

For the compound `COc1ccccc1OP(C)(=O)Nc1ccc(C)c(C)c1` (stereo not given), the inhibition is inactive: 3.08%. Next, `COc1ccc(OP(C)(=O)Nc2ccccc2Br)cc1` (stereo not given): inactive: 10.5%. Regarding `Cc1cc(C)cc(OP(C)(=O)Nc2cccc(C(F)(F)F)c2)c1` (stereo not given), the inhibition was inactive: 6.16%.

As for `O=C1C(O)=C([N+](=O)[O-])C(=O)C(O)=C1[N+](=O)[O-]`, the inhibition is inactive: 1.47%.

Source of the values: PubChem BioAssay AID588489 (Sanford-Burnham Center for Chemical Genomics, 2011).
